How the values were obtained:
HIV-1NL4.3 [1] = settings: CEM-GFP cells
HIV-1NL4.3 [2] = settings: CEM-GFP, Jurkat J6, U937, hPBMCs

SMILES: [2H]C([2H])([2H])N(Cc1cnc2nc(N)nc(N)c2n1)c1ccc(C(=O)N[C@@H](CCC(=O)O)C(=O)O)cc1 [MTX-methyl-d3]
- TI (Therapeutic index = CC50/IC50) (HIV-1NL4.3 [1]): 1103.87
- therapeutic index compared with MTX-HYD (HIV-1NL4.3 [1]; HIV-1NL4.3): higher therapeutic index than MTX-HYD

SMILES: CN(Cc1cnc2nc(N)nc(N)c2n1)c1ccc(C(=O)N[C@@H](CCC(=O)O)C(=O)O)cc1 [Methotrexate Hydrate]
- Therapeutic Index (TI) better than Methotrexate (MTX) (HIV-1NL4.3 [1]; versus MTX): approximately 10 fold
- Therapeutic Index in T-cell lines, monocytic cell line and primary cells (HIV-1NL4.3 [2]): significant Therapeutic Index

From patent US12023336B2, “Antiviral drug compounds and composition thereof” (priority 2018, dated 2024)
